The record followed here is US8900444B2, “Switchable hydrophilicity solvents and methods of use thereof” (Queen's University at Kingston, priority 2009, dated 2014).

Structures are written as SMILES. This is a selection: effects in other tests are not listed, and their absence says nothing.

This data set can be described thus: Miscibility of amines with water in the absence of CO2 (Example 5A). The settings on record: 1 mL amine + 1 mL H2O, room temperature, visual.

Take `OCCN(CCO)CCO`: the “miscibility with water under air (absence of CO2)” value is listed as “single-phase”.
